Test results reported in PubChem BioAssay AID1700 (The Scripps Research Institute Molecular Screening Center, 2009).
This is a selection; strong and weak results do not stand in their true shares. The source made the active and inactive calls.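 Rule for the calls: active = inhibition above a per-plate limit of that plate's mean compound inhibition plus 3 SD (cut at about 60% in these data); inactive = the rest.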

assay: KLF5 expression inhibitors, primary screen, DLD-1 cells, luminescence (AID 1700); settings: DLD-1 KLF5 promoter-luciferase reporter, at 5 µM, stronger effect = higher value;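 note: 0% = DMSO wells and 100% = LY294002 at 200 µM; higher means less KLF5 promoter-driven luciferase light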

Compound	inhibition
CP(=O)(Oc1ccccc1)N1CCOC1=O (configuration not stated)	inactive: -9.95%
COc1ccc(OP(C)(=O)Nc2ccc(Br)cc2)cc1 (configuration not stated)	inactive: -19.8%
CCN(CC)CC(O)COC(=O)C(O)(c1ccccc1)C1CCCCC1 (configuration not stated)	inactive: -12.7%
CN(C)C(=O)c1c([N+](=O)[O-])cc([N+](=O)[O-])cc1[N+](=O)[O-]	inactive: 8.9%
CC(C)(C)c1ccc(OP(C)(=O)O)cc1	inactive: -27%
COc1ccccc1OP(C)(=O)Nc1ccccc1Br (configuration not stated)	inactive: -13.9%
CP(=O)(Nc1ccc(Cl)cc1)Oc1ccc(F)cc1 (configuration not stated)	inactive: 17%
CCOC(=O)c1ccc(NP(C)(=O)Oc2ccc(Cl)cc2)cc1 (configuration not stated)	inactive: -5.39%
CP(=O)(OC12CC3CC(CC(C3)C1)C2)OC12CC3CC(CC(C3)C1)C2	inactive: -6.45%
COc1ccccc1OP(C)(=O)Nc1ccc(C)c(C)c1 (configuration not stated)	inactive: -4.11%
COc1ccc(OP(C)(=O)Nc2ccccc2Br)cc1 (configuration not stated)	inactive: -0.66%
Cc1cc(C)cc(OP(C)(=O)Nc2cccc(C(F)(F)F)c2)c1 (configuration not stated)	inactive: 9.25%
CP(=O)(OCCOc1ccccc1)OCCOc1ccccc1	inactive: -7.59%
CP(=O)(Nc1ccc(Cl)cc1Cl)Oc1ccccc1 (configuration not stated)	inactive: -34.9%
Cc1nc2ccc3ccccc3c2o1.O=[N+]([O-])c1cc([N+](=O)[O-])c(O)c([N+](=O)[O-])c1	inactive: -11.6%
COc1ccc(OP(C)(=O)Nc2ccccn2)cc1 (configuration not stated)	inactive: -18.1%
CN(C)CCOC(=O)C(O)(c1ccccc1)C1CCCC1 (configuration not stated)	inactive: 21.4%
COc1ccccc1OP(C)(=O)Nc1ccc(Br)cc1 (configuration not stated)	inactive: 4.62%
COc1ccccc1OP(C)(=O)Nc1ccc(C)cc1C (configuration not stated)	inactive: -8.75%
CP(=O)(Nc1ccccn1)Oc1ccccc1 (configuration not stated)	inactive: -37.1%
CCc1ccc(OP(C)(=O)O)cc1	inactive: -5.62%
O=[N+]([O-])c1cc([N+](=O)[O-])c(Nc2ccccn2)c([N+](=O)[O-])c1	inactive: -5.88%
